Bioassay records deposited in PubChem BioAssay by National Center for Advancing Translational Sciences (NCATS).
Hits are enriched below; roughly 16% of the tested compounds scored in any of these assays.
miR-21 reporter: raises the signal of a miR-21 reporter | Potency, µM (highest dose often 38.3 µM), without a hit: at the top dose reporter change, positive = more light | HeLa miR-21 FLuc reporter, luciferase, 48 h | 340,000 tested, under 10 active; active = well fitted rising curve with a large enough effect; inconclusive = small, poorly fitted or top-dose-only effect; inactive = no such curve, though single readings can be large or run the other way;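 further: % of control where 0% means no effect; miR-21 action dims this reporter so a rising signal means less miR-21 action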
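HeLa cells stably expressing CMV-driven firefly luciferase with a downstream miR-21 binding sequence, endogenously expressing miR-21, were treated with titrations (up to about 40uM final) for 48 hours at 37 degree Celsius. Luciferase luminescence was read after lysis.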
uPA surface inh: inhibitors of cell surface uPA generation; AID 540303; 330,000 compounds, 0.31% hits; cell surface uPA generation assay, qHTS; Potency, µM (top dose mostly 38.3 µM), for inactives: top-dose activity change, negative = inhibition, actives largely listed as inhibitors; active = well fitted inhibition curve with a large enough effect; inconclusive = small, poorly fitted or top-dose-only effect; inactive = no such curve, though single readings can be large or run the other way; tested in mouse RAW 264.7 cells; also: potency is read from the fitted curve at half-maximal effect; % is scaled to controls: 0 for no effect and ±100 for the full control effect; nearly all actives have a fitted effect of over 55% in size
TDP1 block: blocks human tyrosyl-DNA phosphodiesterase 1; Q9NUW8; recombinant TDP1, AlphaScreen DNA substrate cleavage; Potency, µM (top dose mostly 130 µM), inactives show at the top dose activity change, negative = inhibition, usual class: inhibitors; 350,000 compounds, 0.28% hits; AID 485290; also: potency is read from the fitted curve at half-maximal effect; % is scaled to controls: 0 for no effect and ±100 for the full control effect; nearly all actives have a fitted effect of over 40% in size
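Compounds were preincubated with Tdp1 (1 nM final) for 15 min at room temperature before substrate (15 nM final) started a 5 min reaction; beads (10 ug/ml final) were then added for 10 min before AlphaScreen detection.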
TDP1 cell CPT: DT40-hTDP1 cell growth loss with CPT; chicken DT40 Tdp1-/-;hTDP1 cells + 20 nM CPT, ATP luminescence, 48 h; 420,000 compounds, 12% hits; Potency, µM (top dose mostly 46.2 µM), without a hit: top-dose activity change, negative = growth inhibition, most hits filed as inhibitors; also: potency is read from the fitted curve at half-maximal effect; % is scaled to controls: 0 for no effect and ±100 for the full control effect; nearly all actives have a fitted effect of over 55% in size
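Chicken DT40 Tdp1-/- cells complemented with human TDP1, 400 cells/well, exposed to compounds plus 20 nM camptothecin for at least 48 h at 37 C; viability read as ATP content by CellTiter-Glo luminescence.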
TDP1 cell noCPT: qHTS for Inhibitors of human tyrosyl-DNA phosphodiesterase 1 (TDP1): qHTS in cells in absence of CPT; DT40 Tdp1-/- hTDP1 cells, no CPT, ATP luminescence, 48 h; Potency, µM (highest dose often 46.2 µM), inactives show at the highest dose activity change, negative = growth inhibition, usual class: inhibitors; 420,000 compounds, 15% hits; also: potency is read from the fitted curve at half-maximal effect; % is scaled to controls: 0 for no effect and ±100 for the full control effect; nearly all actives have a fitted effect of over 55% in size
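Chicken DT40 Tdp1-/- cells complemented with human TDP1, screened without camptothecin (DMSO vehicle only), 400 cells/well. Compounds pin-transferred, cells incubated at 37 °C for at least 48 hr. Growth read as ATP-dependent luminescence (CellTiter-Glo, 30 min at RT).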
* hit, by the source's call. Unless noted, calls follow the shape of the dose curve; as a rule, active = well fitted curve in the direction sought with a large enough effect; inconclusive = small, poorly fitted or top-dose-only effect, or another doubt; inactive = no such curve, though single readings can be large; an effect the other way counts as inactive or inconclusive.

Cc1cc(NC(=O)CCc2ccc(S(=O)(=O)N3CCOCC3)cc2)n(-c2ccccc2)n1 was read as miR-21 reporter 6%, uPA surface inh -4%, TDP1 block 2%, TDP1 cell CPT 12µM* and TDP1 cell noCPT 8.2µM*.
CC(NC(=S)Nc1ccc(S(=O)(=O)N2CCOCC2)cc1)C1CC2CCC1C2 (stereo not given) was read as miR-21 reporter inconclusive, uPA surface inh -7%, TDP1 block 1%, TDP1 cell CPT inconclusive and TDP1 cell noCPT 29µM*.
Screening O=S(=O)(c1ccc(NC(=S)Nc2ccccc2)cc1)N1CCOCC1 returned miR-21 reporter -4%, uPA surface inh 2%, TDP1 block -5%, TDP1 cell CPT -9% and TDP1 cell noCPT -27%.
Screening O=C(CCc1ccccc1)NC(=S)Nc1ccc(S(=O)(=O)N2CCOCC2)cc1 returned miR-21 reporter 0%, uPA surface inh -5%, TDP1 block 0%, TDP1 cell CPT inconclusive and TDP1 cell noCPT 16µM*.
O=C(NCC1CCCO1)c1ccc(Cn2c(=S)[nH]c3ccccc3c2=O)cc1 (stereo not given) was read as miR-21 reporter -8%, uPA surface inh -1%, TDP1 block 5%, TDP1 cell CPT 4% and TDP1 cell noCPT -25%.
Screening COc1cccc(N2CC(C)Cn3c2nc2c3c(=O)[nH]c(=O)n2C)c1 (stereo not given) returned miR-21 reporter -4%, uPA surface inh -2%, TDP1 cell CPT inconclusive and TDP1 cell noCPT inconclusive.
For Cc1cccc(Cn2cnc3c(nnn3Cc3ccccc3F)c2=O)c1 the results were miR-21 reporter 1%, TDP1 block 3%, TDP1 cell CPT inconclusive and TDP1 cell noCPT 28µM*.
For Cc1ccc(Cn2nnc3c(=O)n(CC(=O)N4CCN(c5ccccc5)CC4)cnc32)cc1 the results were miR-21 reporter 6%, uPA surface inh 6%, TDP1 block 7%, TDP1 cell CPT 21µM* and TDP1 cell noCPT inconclusive.
For O=C(Cn1cnc2c(nnn2Cc2ccc(F)cc2)c1=O)OCc1ccccc1 the results were miR-21 reporter -2%, uPA surface inh -3%, TDP1 block 2%, TDP1 cell CPT inconclusive and TDP1 cell noCPT -24%.
Screening O=C(Cn1cnc2c(nnn2Cc2ccc(F)cc2)c1=O)N1CCCCC1 returned miR-21 reporter -5%, uPA surface inh 8%, TDP1 block -1%, TDP1 cell CPT 0% and TDP1 cell noCPT -13%.
`Cc1ccc(Cn2nnc3c(=O)n(CC(=O)OCc4ccccc4)cnc32)cc1` gave miR-21 reporter -6%, uPA surface inh 3%, TDP1 block 7%, TDP1 cell CPT 18µM* and TDP1 cell noCPT 16µM*.
For Cc1cccc(C)c1NC(=O)COC(=O)c1cc(=O)c2ccccc2o1 the results were miR-21 reporter 5%, uPA surface inh 3%, TDP1 block -3%, TDP1 cell CPT inconclusive and TDP1 cell noCPT inconclusive.
For CCN(C(=O)Cn1c(=O)oc2ccccc21)c1c(N)n(Cc2ccccc2)c(=O)[nH]c1=O the results were uPA surface inh 15%, TDP1 block -11%, TDP1 cell CPT 5% and TDP1 cell noCPT -1%.
`CCCc1nc2ccccc2n1C(=S)SC` gave miR-21 reporter 4%, uPA surface inh -10%, TDP1 block -3%, TDP1 cell CPT -23% and TDP1 cell noCPT -28%.
`COc1ccc(Cn2c(SCC(=O)NCc3ccccc3)nc3ccccc32)cc1` gave miR-21 reporter 20%, TDP1 block 1%, TDP1 cell CPT inconclusive and TDP1 cell noCPT inconclusive.
O=C(CSc1nc2ccccc2n1Cc1ccccc1)NCc1ccccc1 was read as miR-21 reporter 3%, TDP1 block -4%, TDP1 cell CPT -24% and TDP1 cell noCPT 23µM*.
Screening CSc1nc2ccccc2n1CC(=O)Nc1ccccc1 returned miR-21 reporter -1%, uPA surface inh -10%, TDP1 block 2%, TDP1 cell CPT 5.2µM* and TDP1 cell noCPT 18µM*.
`CCN(C(=O)CSc1nc2ccccc2n1CC(=O)Nc1ccccc1C)c1ccccc1` gave miR-21 reporter inconclusive, TDP1 block 6%, TDP1 cell CPT inconclusive and TDP1 cell noCPT 21µM*.
Screening O=C(CSc1nc2ccccc2n1CCc1ccccc1)N1CCOCC1 returned miR-21 reporter -6%, uPA surface inh 0%, TDP1 block 5%, TDP1 cell CPT inconclusive and TDP1 cell noCPT inconclusive.
`O=C(CSc1nc2ccccc2n1CCc1ccccc1)c1ccc(O)c(O)c1` gave miR-21 reporter -14%, uPA surface inh -12%, TDP1 cell CPT 12µM* and TDP1 cell noCPT 16µM*.

Grouped by structure, the compounds so far with an aryl methoxy group.
Screening COc1cccc(N2CC(C)Cn3c2nc2c3c(=O)[nH]c(=O)n2C)c1 (stereo not given) returned miR-21 reporter -4%, uPA surface inh -2%, TDP1 cell CPT inconclusive and TDP1 cell noCPT inconclusive.
`COc1ccc(Cn2c(SCC(=O)NCc3ccccc3)nc3ccccc32)cc1` gave miR-21 reporter 20%, TDP1 block 1%, TDP1 cell CPT inconclusive and TDP1 cell noCPT inconclusive.

Next section
For O=C(CC1Sc2ccccc2NC1=O)c1ccc(Br)cc1 (stereo not given) the results were miR-21 reporter -62%, uPA surface inh -13%, TDP1 block -1%, TDP1 cell CPT -15% and TDP1 cell noCPT -9%.
`COc1ccc(Cn2c(SCC(=O)N(C)Cc3ccccc3)nc3ccccc32)cc1` gave miR-21 reporter -20%, TDP1 block 6%, TDP1 cell CPT inconclusive and TDP1 cell noCPT inconclusive.
`COc1ccc(CNC(=O)Cn2c(SCC(=O)N(C)c3ccccc3)nc3ccccc32)cc1` gave miR-21 reporter 5%, TDP1 block 6%, TDP1 cell CPT inconclusive and TDP1 cell noCPT 18µM*.
CCN(C(=O)CSc1nc2ccccc2n1CC(=O)NCc1ccc(OC)cc1)c1ccccc1 was read as miR-21 reporter -6%, TDP1 block 1%, TDP1 cell CPT inconclusive and TDP1 cell noCPT 23µM*.
`COCCn1c(SCC(=O)NC(=O)NCc2ccccc2)nc2ccccc21` gave miR-21 reporter -1%, uPA surface inh 2%, TDP1 block 2%, TDP1 cell CPT inconclusive and TDP1 cell noCPT inconclusive.
S=C(NCc1ccco1)N/N=C/c1cccnc1 was read as miR-21 reporter 2%, uPA surface inh 8%, TDP1 cell CPT -3% and TDP1 cell noCPT -25%.
Screening C[C@@H](C(=O)OCn1nnc2ccccc2c1=O)N1C(=O)C2CCCCC2C1=O (stereo not given in full) returned miR-21 reporter -9%, uPA surface inh 10%, TDP1 block 0%, TDP1 cell CPT -8% and TDP1 cell noCPT -6%.
Cc1ccc(NC(=O)c2ccc(S(=O)(=O)NCC3CCCO3)cc2)cc1 (stereo not given) was read as miR-21 reporter -15%, uPA surface inh 2%, TDP1 block 7%, TDP1 cell CPT -15% and TDP1 cell noCPT -16%.

Arranged by count of non-hydrogen atoms (descending): some entries from above
CCN(C(=O)CSc1nc2ccccc2n1CC(=O)NCc1ccc(OC)cc1)c1ccccc1 was read as miR-21 reporter -6%, TDP1 block 1%, TDP1 cell CPT inconclusive and TDP1 cell noCPT 23µM*.
`COc1ccc(Cn2c(SCC(=O)N(C)Cc3ccccc3)nc3ccccc32)cc1` gave miR-21 reporter -20%, TDP1 block 6%, TDP1 cell CPT inconclusive and TDP1 cell noCPT inconclusive.
Cc1ccc(NC(=O)c2ccc(S(=O)(=O)NCC3CCCO3)cc2)cc1 (stereo not given) was read as miR-21 reporter -15%, uPA surface inh 2%, TDP1 block 7%, TDP1 cell CPT -15% and TDP1 cell noCPT -16%.
